scFv variants of Ab-14 (heavy chain) against a SARS-CoV-2 spike peptide

The target is the same throughout: PDVDLGDISGINAS, from the HR2 region of SARS-CoV-2 spike.

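These sequences belong to a second round, designed from the earlier measurements on random variants of the parent. Several design methods are mixed in this list. The scFvs were displayed on barcoded MATa yeast, the peptide on MATalpha yeast. After mating in shaken culture at 30 °C for 16 h, diploids were selected and their barcode pairs sequenced. The ratio of observed to expected reads was calibrated, replicate by replicate, on BCL2-family standards whose Kd was known from biolayer interferometry. There are six technical replicates.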

Parent: Ab-14, a human scFv built as VH, a 15-residue (Gly4Ser)3 linker, VL. Only the CDRs of the heavy chain vary.
VH: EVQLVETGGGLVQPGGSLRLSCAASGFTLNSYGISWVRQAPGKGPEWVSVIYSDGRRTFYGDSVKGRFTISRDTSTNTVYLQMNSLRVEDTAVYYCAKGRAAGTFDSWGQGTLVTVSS
VL: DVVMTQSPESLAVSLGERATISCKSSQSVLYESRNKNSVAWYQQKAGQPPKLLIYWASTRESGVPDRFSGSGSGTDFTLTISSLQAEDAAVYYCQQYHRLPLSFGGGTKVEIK

The parent's heavy chain CDRs are GFTLNSYGIS, VIYSDGRRTFYGDSVK, GRAAGTFDS; each variant's own CDRs replace them letter for letter.
This list holds designs with at most six substitutions.
Scale: log10 of Kd in nM, estimated from mating counts; low values are strong binders.
A mean of the replicates is given; it leaves out those without a signal.
"no signal" marks a missing value. The strain was present, yet no cells mated with the target were sequenced in any replicate, which points to weak or no binding.
A sequence measured in both rounds can read differently, since the two assays cover different ranges.

With GFSLNNYGIS / VIYSDGRRTFYGDSVK / GVTAGTFDS the result was 1.25 (6 of 6 replicates).
With GFTLNSYGIS / VIYADGRRTFYGDSVK / GRLAGTFMI the result was no signal (0 of 6 replicates).
With GFTLNDYGIS / VIYSDGRRTMYADSVK / GRAAGTFDS the result was 0.22 (5 of 6 replicates).
With GFDLNSYGIS / VIYSDGRRTFYGDSVK / GRNAGTFDT the result was 1.17 (6 of 6 replicates).
With GFNLNSYGIS / VIYSDGRRTFYHDSVK / GQLAGTFDS the result was no signal (0 of 6 replicates).
With GFSLNEYGIS / VIYSDGRRTFYADSVK / GPAAGTFDR the result was no signal (0 of 6 replicates).
With GFDLNSYGIS / VIYSDGRRTFYGDDVK / GRAAGHFVS the result was no signal (0 of 6 replicates).
With GFWLNEYGIS / VIYSDGRRTFYGDHVK / GRTAGTFDS the result was 2.37 (4 of 6 replicates).
With GFNLNSYGIS / VIYSDGRRTFYKDSVK / GNAAGTFDS the result was 0.88 (6 of 6 replicates).
With GFWLNDYGIS / VIYSDGRRTLYIDSVK / GRAAGTFDS the result was no signal (0 of 6 replicates).
With GFFLNSYGIS / VIYSDKRRTFYGDIVK / GRAWGWFNS the result was no signal (0 of 6 replicates).
With GFTLNSYGIS / VIYSDGRRTFYGDSVK / GRASGTFDS the result was 2.12 (1 of 6 replicates).
With GFRLNEYGIS / VIYSDGRRTFYGDSVK / RKQAGTFDT the result was no signal (0 of 6 replicates).
With GFTLNDYGIS / VIYSDGRRTFYADSVK / GRNPGTFDS the result was 0.48 (6 of 6 replicates).
With GFTLNSYGIS / VIYSDGLRTFYSDSVK / GQTAGTFDS the result was 0.44 (6 of 6 replicates).
With GFTLNDYGIS / VIYSDGMRTFYSDSVK / GRAAGTFDS the result was 1.57 (3 of 6 replicates).
With GFDLNSYGIS / VIYSDGRRTFYGDSVK / GRRAGRFDS the result was no signal (0 of 6 replicates).
With GFQLNEYGIS / VIYSDGRRTFYGDSVK / GRAAVTFDQ the result was no signal (0 of 6 replicates).
With GFQLNDYGIS / VIYSDGRRTMYGDSVK / GRAAGTFDS the result was 1.04 (6 of 6 replicates).
With GFHLNDYGIS / VIYSDGRRTFYGDSVK / GRTAGTFDS the result was 0.40 (6 of 6 replicates).
With GFTLNSYGIS / VIYSDGRRTFYLDSVK / GTAAGTFDS the result was no signal (0 of 6 replicates).
With GFHLNSYGIS / VIYSDGRRTFYIDSVK / GKLAGTFDS the result was 1.58 (1 of 6 replicates).
With GFTLNSYGIS / VIYSDGRRTFYQDSVK / GRLAGTFDW the result was no signal (0 of 6 replicates).
With GFTLNSYGIS / VIYSDGRRTFYDMSVK / GQLAGTFGS the result was no signal (0 of 6 replicates).
With GPTLNEYGIS / VIYSDGRRTFYTDSVK / GRFAGCFDS the result was no signal (0 of 6 replicates).
With GFTLNDYGIS / VIYSDGRRTFYGDSVK / GRAALTFAS the result was no signal (0 of 6 replicates).
With GFTLNSYGIS / VIYSDGRRTFYGDSVK / GRQAGTFCS the result was no signal (0 of 6 replicates).
With GFVLNSYGIS / VIYSDGRRTFYADSVK / GQTAGTFDT the result was 0.92 (6 of 6 replicates).
With GDTLDSYGIS / VIYSDGRRTFYIDSVK / GRAAGTFDS the result was 0.68 (2 of 6 replicates).
With GFNLNSYGIS / VIYADGRRTFYGDSVK / GRAAGTFDS the result was 0.02 (9 of 12 replicates).
With GFTLNDYGIS / VIYSDGRRTFYGNSVK / GSAAGTFDG the result was 2.60 (5 of 6 replicates).
With GFLLNEYGIS / VIYSDGRRTFYKDSVK / GRAAGTFDS the result was 1.70 (1 of 6 replicates).
With GFDLNDYGIS / VIYSDGRRTFYGDSVK / GDAAGTFDS the result was 0.40 (6 of 6 replicates).
With GFHLNSYGIS / VIYSDGRRTFYADSVK / GQTAGTFDS the result was no signal (0 of 6 replicates).
With RFTLNSYGIS / VIYSDGRRTFYTDSVK / GRPAGTWDS the result was no signal (0 of 6 replicates).

The first 5 entries again:

| CDR-H1 | CDR-H2 | CDR-H3 | log10 Kd (nM), mean | detected |
|---|---|---|---|---|
| GFSLNNYGIS | VIYSDGRRTFYGDSVK | GVTAGTFDS | 1.25 | 6/6 |
| GFTLNSYGIS | VIYADGRRTFYGDSVK | GRLAGTFMI | no signal | 0/6 |
| GFTLNDYGIS | VIYSDGRRTMYADSVK | GRAAGTFDS | 0.22 | 5/6 |
| GFDLNSYGIS | VIYSDGRRTFYGDSVK | GRNAGTFDT | 1.17 | 6/6 |
| GFNLNSYGIS | VIYSDGRRTFYHDSVK | GQLAGTFDS | no signal | 0/6 |

Where one sequence has several entries in the source, the replicates are pooled.
The authors averaged sequences with at least three values out of six and counted those with two or fewer as poor binders.
Three control strains display no target. For all heavy chain designs, 1% of the pairings with them gave a signal, with a median of 2.08 and one signal in twenty below 0.84, so weak values seen in few replicates may be background.

Source: Li et al. 2023 (doi:10.1038/s41467-023-39022-2), MIT Lincoln Laboratory and A-Alpha Bio; data file from the FLAb repository.